Reference: paper PMC4677665 (ACS Medicinal Chemistry Letters, 2015)

Test system: CRL-8155 human lymphocytic cells
Conditions: CRL-8155 cell line, 48 hours

CC(C)(C)n1nc(-c2cnc3cc(OC4CC4)ccc3c2)c(C(N)=O)c1N [Compound 34] was tested, and the cytotoxicity was >40 µM.
For CCOc1ccc2cc(-c3nn(C(C)C)c(N)c3C(N)=O)ccc2n1 [Compound 18], the cytotoxicity was >40 µM.
In the case of CC(C)(C)n1nc(-c2cnc3cc(OC4CCC4)ccc3c2)c(C(N)=O)c1N [Compound 36], the cytotoxicity was >40 µM.
